# Ab-91 heavy chain CDR variants: yeast mating affinities

Antigen: PDVDLGDISGINAS, a 14-residue peptide of the SARS-CoV-2 spike HR2 region.

Each scFv is VL, the linker GGGGSGGGGSGGGGS, VH, as in the parent Ab-91, and differs from it in the CDRs of the heavy chain only.
VL: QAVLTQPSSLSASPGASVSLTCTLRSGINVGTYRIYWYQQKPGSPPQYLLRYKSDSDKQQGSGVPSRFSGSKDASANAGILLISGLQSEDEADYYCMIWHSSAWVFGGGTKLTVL
VH: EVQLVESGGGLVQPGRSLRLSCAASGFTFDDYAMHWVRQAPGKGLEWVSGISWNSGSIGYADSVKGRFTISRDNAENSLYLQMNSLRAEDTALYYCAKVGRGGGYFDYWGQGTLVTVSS

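AAYL51 was designed without a model: most single CDR substitutions and a random sample of double and triple ones. In AlphaSeq, yeast of one mating type display the scFv and yeast of the other type display the target. Pairs that bind mate more often; barcode pairs of the diploids are counted by sequencing. Read counts were normalised to the haploid input and turned into Kd by a linear fit to BCL2-family pairs of known affinity, for each replicate. Each pool was mated in three replicate cultures.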

The parent's heavy chain CDRs are GFTFDDYAMH, GISWNSGSIGYADSVK, VGRGGGYFDY; each variant's own CDRs replace them letter for letter.
Numbers give log10(Kd / nM), so 0 is 1 nM and 3 is 1 µM. Smaller is tighter.
A pair that was not seen in that replicate is written "n.d."; this usually means weak binding, but a binder can also be missed.
As a blank, each scFv also met three strains without target: over library AAYL51, 21% of these pairings were detected, typically at 4.54 and seldom below 3.26. The control count says in how many pairings with the empty strains this scFv gave a signal, with their mean in brackets.

{"CDR-H1": "GFTFDDYAMH", "CDR-H2": "GISWNSGSIGYASSVK", "CDR-H3": "VGNGGGYFTY", "replicates, log10 nM": "n.d. / n.d. / n.d.", "signal with controls": "0 of 9"}
{"CDR-H1": "GFTFDDYAMH", "CDR-H2": "GISWNSGSIEYADSVK", "CDR-H3": "VGWGGGYLDY", "replicates, log10 nM": "n.d. / 3.25 / n.d.", "signal with controls": "0 of 9"}
{"CDR-H1": "GFTFLQYARH", "CDR-H2": "GISWNSGSIGYADSVK", "CDR-H3": "VGRGGGYFDY", "replicates, log10 nM": "n.d. / 5.66 / n.d.", "signal with controls": "2 of 9 (4.07)"}
{"CDR-H1": "GFTFDDYAMH", "CDR-H2": "GISWNEGSIGYWVSVK", "CDR-H3": "VGRGGGYFDY", "replicates, log10 nM": "n.d. / n.d. / n.d.", "signal with controls": "0 of 9"}
{"CDR-H1": "GFTPDDYAMH", "CDR-H2": "GISWNSGSINYADSVK", "CDR-H3": "VGRGGGYFDY", "replicates, log10 nM": "n.d. / n.d. / n.d.", "signal with controls": "0 of 9"}
{"CDR-H1": "GFTFDDYGMI", "CDR-H2": "GISWNSGSIGYPDSVK", "CDR-H3": "VGRGGGYFDY", "replicates, log10 nM": "4.89 / 4.19 / 5.53", "signal with controls": "5 of 9 (4.61)"}
{"CDR-H1": "GFTFDDYAMH", "CDR-H2": "GISWNSGSIFYADSVK", "CDR-H3": "VGRKGGYFDF", "replicates, log10 nM": "n.d. / n.d. / n.d.", "signal with controls": "0 of 9"}
{"CDR-H1": "GFTFDQYAMH", "CDR-H2": "GISWNSGSIYYAASVK", "CDR-H3": "VGRGGGYFDY", "replicates, log10 nM": "4.97 / n.d. / n.d.", "signal with controls": "1 of 9 (6.04)"}
{"CDR-H1": "GFCFDWYAMH", "CDR-H2": "GISWNSYSIGYADSVK", "CDR-H3": "VGRGGGYFDY", "replicates, log10 nM": "n.d. / n.d. / n.d.", "signal with controls": "1 of 9 (3.07)"}
{"CDR-H1": "GFTFDDEAMH", "CDR-H2": "GFSWNIGSIGYADSVK", "CDR-H3": "VGRGGGYFDY", "replicates, log10 nM": "n.d. / n.d. / n.d.", "signal with controls": "0 of 9"}
{"CDR-H1": "GMTFDDYAMH", "CDR-H2": "GISFNSGSIGYTDSVK", "CDR-H3": "VGRGGGYFDY", "replicates, log10 nM": "1.45 / 1.00 / 1.19", "signal with controls": "0 of 9"}
{"CDR-H1": "GFTFDMYAMH", "CDR-H2": "GISWNSASIGYADSVK", "CDR-H3": "VGRGGGNFDY", "replicates, log10 nM": "1.48 / 1.54 / 0.96", "signal with controls": "1 of 9 (5.22)"}
{"CDR-H1": "GFTFDDYAMH", "CDR-H2": "GISWNSGSIQYADSVK", "CDR-H3": "VGRGQGYFDM", "replicates, log10 nM": "n.d. / n.d. / n.d.", "signal with controls": "1 of 9 (2.43)"}
{"CDR-H1": "GFTFDDYAMV", "CDR-H2": "GISWNSASIGYADSVK", "CDR-H3": "IGRGGGYFDY", "replicates, log10 nM": "4.33 / 6.35 / 5.18", "signal with controls": "4 of 9 (4.84)"}
{"CDR-H1": "LFTFDDYAMH", "CDR-H2": "GISWNSGNIGYADSVK", "CDR-H3": "VGRGGGQFDY", "replicates, log10 nM": "n.d. / n.d. / n.d.", "signal with controls": "0 of 9"}
{"CDR-H1": "GFRFNDYAMH", "CDR-H2": "GRSWNSGSIGYADSVK", "CDR-H3": "VGRGGGYFDY", "replicates, log10 nM": "n.d. / n.d. / n.d.", "signal with controls": "3 of 9 (3.83)"}
{"CDR-H1": "GFTFDDYAMH", "CDR-H2": "GISWNSFSIGYADSVK", "CDR-H3": "VGREGDYFDY", "replicates, log10 nM": "n.d. / n.d. / 2.02", "signal with controls": "0 of 9"}
{"CDR-H1": "GFTFDDYAMH", "CDR-H2": "GISNNSGSLGYADSVK", "CDR-H3": "SGRGGGYFDY", "replicates, log10 nM": "n.d. / n.d. / n.d.", "signal with controls": "0 of 9"}
{"CDR-H1": "GFTFDDWAMH", "CDR-H2": "GISWNSGSIGYAISVK", "CDR-H3": "VGRGGGYFDY", "replicates, log10 nM": "n.d. / n.d. / n.d.", "signal with controls": "2 of 9 (4.51)"}
{"CDR-H1": "GYTFDDYAMH", "CDR-H2": "GISWNSGPIGYAISVK", "CDR-H3": "VGRGGGYFDY", "replicates, log10 nM": "n.d. / 4.03 / n.d.", "signal with controls": "0 of 9"}
{"CDR-H1": "GFTFDDYAMH", "CDR-H2": "GISSNSGSIGYADSVK", "CDR-H3": "VGRGGGYHDY", "replicates, log10 nM": "2.65 / 2.81 / 2.32", "signal with controls": "0 of 9"}
{"CDR-H1": "GFTFDDHAMH", "CDR-H2": "GISWNSGSIGYADSVR", "CDR-H3": "VGCGGGYFDY", "replicates, log10 nM": "2.51 / 2.55 / 2.61", "signal with controls": "2 of 9 (4.97)"}

2 of these entries, quoted again:

| CDR-H1 | CDR-H2 | CDR-H3 | replicates, log10 nM | signal with controls |
|---|---|---|---|---|
| GFTFDQYAMH | GISWNSGSIYYAASVK | VGRGGGYFDY | 4.97 / n.d. / n.d. | 1 of 9 (6.04) |
| GFTFLQYARH | GISWNSGSIGYADSVK | VGRGGGYFDY | n.d. / 5.66 / n.d. | 2 of 9 (4.07) |

Data: MIT Lincoln Laboratory AlphaSeq set, Engelhart et al. 2022, doi:10.1038/s41597-022-01779-4, as distributed in FLAb.